EC50 data for one molecule are collected here from patent US8119806B2, “Cicletanine derivatives” (Merck Sharp & Dohme Corp., priority 2008, dated 2012).

The test system of this assay is isolated rabbit thoracic aorta preparations. In words: Vessel relaxation in isolated rabbit thoracic aorta rings precontracted with noradrenaline. The note with it: read-out: Vessel Relaxation Data ED50; isolated rabbit aortic rings, noradrenaline 1 μM precontraction, functional endothelium.

As to `O=C(O)[C@H]1C[C@H](O[N+](=O)[O-])[C@H](O[N+](=O)[O-])C1`, the EC50 came to 5.26 µM.
